Test results: US20250134864A1, “METHODS OF WEIGHT LOSS AND PRESERVING SKELETAL MUSCLE MASS” (published 2025)

How the values were obtained:
[1] = Phase 2a trial: InBody scale measurements of body weight and body composition; conditions: for Mean body weight decrease compared with placebo: 450 mg (high dose)
[2] = Phase 2a trial: glycemic control (glycated albumin, HbA1c) and inflammatory/metabolic markers
[3] = 300 mg, HbA1c 5.7% to 9.0% Subgroup
[4] = 450 mg, HbA1c 5.7% to 9.0% Subgroup
[5] = 450 mg, HbA1c 5.7%-9.0% subgroup
[6] = 150 mg, HbA1c 5.7%-9.0% subgroup
[7] = 300 mg, HbA1c 5.7%-9.0% Subgroup

**Q.** Which results are given for `Cn1c(COc2ccc([N+](=O)[O-])cc2[N+](=O)[O-])cnc1[N+](=O)[O-]`?
**A.** Dry Lean Mass, Difference in LS Mean at Day 61 (Compound 1 v. Placebo) [1, 3]: 0.54 pounds; Dry Lean Mass, LS Mean (Day 61 − Baseline), MMRM [1, 3]: 0.13 pounds; Lean Body Mass, Difference in LS Mean at Day 61 (Compound 1 v. Placebo) [1, 3]: 1.13 pounds; Lean Body Mass, LS Mean (Day 61 − Baseline), MMRM [1, 3]: 0.15 pounds; Percent Body Fat, Difference in LS Mean at Day 61 (Compound 1 v. Placebo) [1, 3]: −1.35%; Percent Body Fat, LS Mean (Day 61 − Baseline), MMRM [1, 3]: −0.91%; Skeletal Muscle Mass, Difference in LS Mean at Day 61 (Compound 1 v. Placebo) [1, 3]: 0.68; Skeletal Muscle Mass, LS Mean (Day 61 − Baseline), MMRM [1, 3]: −0.02; Skeletal Muscle Mass, Change from Baseline to Day 61, Mean ([1]; 300 mg, all subjects): −0.43 lbs; Skeletal Muscle Mass, Change from Baseline to Day 61, Median ([1]; 300 mg, all subjects): −0.70 lbs; Mean body weight decrease compared with placebo ([1]; Day 61, all participants): 6 pounds; Mean body weight decrease compared with placebo ([1]; Day 61, subgroup with elevated HbA1c): 10 pounds; Skeletal muscle mass (and lean body mass and dry lean mass) ([1]; 450 mg group, Day 61, compared with placebo): remained unchanged; Body Fat Mass, Difference in LS Mean at Day 61 (Compound 1 v. Placebo) ([1]; 450 mg, All Subjects): −5.95 pounds; Body Fat Mass, LS Mean (Day 61 − Baseline), MMRM ([1]; 450 mg, All Subjects): −5.34 pounds; Dry Lean Mass, Difference in LS Mean at Day 61 (Compound 1 v. Placebo) ([1]; 450 mg, All Subjects): 0.18 pounds; Dry Lean Mass, LS Mean (Day 61 − Baseline), MMRM ([1]; 450 mg, All Subjects): −0.09 pounds; Lean Body Mass, Difference in LS Mean at Day 61 (Compound 1 v. Placebo) ([1]; 450 mg, All Subjects): 0.25 pounds; Lean Body Mass, LS Mean (Day 61 − Baseline), MMRM ([1]; 450 mg, All Subjects): −0.64 pounds; Percent Body Fat, Difference in LS Mean at Day 61 (Compound 1 v. Placebo) ([1]; 450 mg, All Subjects): −1.49%; Percent Body Fat, LS Mean (Day 61 − Baseline), MMRM ([1]; 450 mg, All Subjects): −1.19%; Skeletal Muscle Mass, Difference in LS Mean at Day 61 (Compound 1 v. Placebo) ([1]; 450 mg, All Subjects): 0.04; Skeletal Muscle Mass, LS Mean (Day 61 − Baseline), MMRM ([1]; 450 mg, All Subjects): −0.46; Skeletal Muscle Mass, Change from Baseline to Day 61, Mean ([1]; 450 mg, Elevated A1C): −0.03 lbs; Skeletal Muscle Mass, Change from Baseline to Day 61, Median ([1]; 450 mg, Elevated A1C): 0.70 lbs; Body Fat Mass, Change from Baseline to Day 61, Mean ([1]; 450 mg, FAS population): −5.3 lbs; Body Fat Mass, Change from Baseline to Day 61, Median ([1]; 450 mg, FAS population): −5.2 lbs; Body Fat Mass, Day 61, Mean ([1]; 450 mg, FAS population): 97.7 lbs; Body Fat Mass, Day 61, Median ([1]; 450 mg, FAS population): 105.3 lbs; Body Fat Mass, Difference in LS Mean at Day 61 (Compound 1 v. Placebo) [1, 4]: −10.57 pounds; Body Fat Mass, LS Mean (Day 61 − Baseline), MMRM [1, 4]: −9.02 pounds; Dry Lean Mass, Difference in LS Mean at Day 61 (Compound 1 v. Placebo) [1, 4]: 0.61 pounds; Dry Lean Mass, LS Mean (Day 61 − Baseline), MMRM [1, 4]: 0.21 pounds; Lean Body Mass, Difference in LS Mean at Day 61 (Compound 1 v. Placebo) [1, 4]: 0.91 pounds; Lean Body Mass, LS Mean (Day 61 − Baseline), MMRM [1, 4]: −0.07 pounds; Percent Body Fat, Difference in LS Mean at Day 61 (Compound 1 v. Placebo) [1, 4]: −2.64%; Percent Body Fat, LS Mean (Day 61 − Baseline), MMRM [1, 4]: −2.20%; Skeletal Muscle Mass, Difference in LS Mean at Day 61 (Compound 1 v. Placebo) [1, 4]: 0.76; Skeletal Muscle Mass, LS Mean (Day 61 − Baseline), MMRM [1, 4]: 0.05; Body Fat Mass, Change from Baseline to Day 61, Mean [1, 5]: −9 lbs; Body Fat Mass, Change from Baseline to Day 61, Median [1, 5]: −8 lbs; Body Fat Mass, Day 61, Mean [1, 5]: 97.8 lbs; Body Fat Mass, Day 61, Median [1, 5]: 110.2 lbs; Skeletal Muscle Mass, Change from Baseline to Day 61, Mean ([1]; 450 mg, all subjects): −0.47 lbs; Skeletal Muscle Mass, Change from Baseline to Day 61, Median ([1]; 450 mg, all subjects): −0.20 lbs; Lean body mass ([1]; Compound 1 treatment, Day 61): Lean body mass was preserved; Muscle mass from base line ([1]; participants with elevated HbA1c (>5.7 at baseline)): no reduction of muscle mass was observed from base line; Percent Glycated Albumin, Change from Baseline to Day 61, Mean ([2]; 150 mg, FAS population): −0.18%; Percent Glycated Albumin, Change from Baseline to Day 61, Median ([2]; 150 mg, FAS population): 0.1%; Percent Glycated Albumin, Change from Baseline to Day 61, Mean [2, 6]: −0.78%; Percent Glycated Albumin, Change from Baseline to Day 61, Median [2, 6]: 0.15%; Percent Glycated Albumin, Change from Baseline to Day 61, Mean ([2]; 300 mg, FAS population): −0.66%; Percent Glycated Albumin, Change from Baseline to Day 61, Median ([2]; 300 mg, FAS population): −0.55%; Percent Glycated Albumin, Change from Baseline to Day 61, Mean [2, 7]: −0.36%; Percent Glycated Albumin, Change from Baseline to Day 61, Median [2, 7]: −0.2%; Percent Glycated Albumin, Change from Baseline to Day 61, Mean ([2]; 450 mg, FAS population): −1.49%; Percent Glycated Albumin, Change from Baseline to Day 61, Median ([2]; 450 mg, FAS population): −1.25%; Percent Glycated Albumin, Change from Baseline to Day 61, Mean [2, 5]: −1.73%; Percent Glycated Albumin, Change from Baseline to Day 61, Median [2, 5]: −1.7%; Inflammatory and metabolic markers ([2]; 61-day study): Significant reductions
